This is a sample that favours compounds with a hit; in the whole collection about 2.3% have one here.
ARFGAP1 inh – inhibits rat ARF GTPase activating protein 1; Q62848; Arfgap1-stimulated ARF1 GTP hydrolysis, GDP FP detection; inhibition, % at 16.5 µM; actives 0.26% (n = 360,000); AID 651572;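 active = inhibition above a per-plate limit, mean inhibition of low control wells plus 3 SD, cut at about 25% in these data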;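 also: 0% = DMSO wells with enzyme and 100% = wells lacking Arfgap1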
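material = rat Arfgap1 catalytic domain, aa 1-136 | also added = human ARF1(Δ1-17)-GTP substrate | compound dosing = one concentration, 16.5 µM, DMSO 1.26% | times = GTP hydrolysis reaction 2 h at 25 °C | measured by = FP, GDP Alexa 633 tracer displaced from anti-GDP antibody, 620/688 nm | evaluation = percent inhibition of Arfgap1-stimulated GTP hydrolysis | replication = single well per compound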
Yeast UUG start – modulators of start codon recognition fidelity in yeast; S. cerevisiae UUG-firefly luciferase reporter, luminescence/redox ratio; activity score, % at 18.7 µM; 0.13% of 350,000 active;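 active = replicate mean at a twofold rise or more, about +100% in these data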;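 also: firefly luciferase made from a UUG start codon reports start codon fidelity; reporter light over untreated wells divided by growth signal over untreated wells; some hits fall short of that in this replicate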
ASAP1 inh – ASAP1 ArfGAP inhibition. Q9ULH1. actives 0.19% (n = 360,000). ASAP1-stimulated ARF1 GTP hydrolysis, GDP FP detection. inhibition, % at 16.5 µM; in the data active = inhibition above about 25%;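 also: 0% = vehicle with enzyme and substrate and 100% = no enzyme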
MC4R barr agon – agonists of human melanocortin 4 receptor (MC4R) beta-arrestin; actives 0.98% (n = 360,000); U2OS MC4R beta-arrestin complementation, luminescence; percent of melanotan II response, DMSO zero; activation, % at 8.9 µM;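 active = activation above a per-plate cutoff, the mean activation of sample wells on that plate plus 3 SD, cut at about 8% in these data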
NRP1-CendR mod – alters CendR peptide binding to human NRP-1. O14786. FAM-RPARPAR peptide binding to NRP-1, fluorescence polarization. inhibition, % at 25 µM. actives 0.85% (n = 360,000). AID 602438;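 active = inhibition or corrected inhibition above about 18%, plus a signal ratio from 0.5 to 1.5, limit read from the data, passing the limit was not always enough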
MC4R antagonist – blocks human MC4R cAMP signaling; actives 0.48% (n = 360,000); AID 540295; inhibition, % at 6.5 µM; MC4R-expressing cells, MTII-stimulated cAMP, LANCE TR-FRET;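 active = inhibition above its plate's cutoff, the mean of tested wells on that plate plus 3 SD, cut at about 29% in these data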;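 also: 0% = Melanotan II alone and 100% = Melanotan II plus saturating MCL0020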
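Assay system: human MC4R-expressing U2OS cells; reagent: Melanotan II stimulation of cells; dosing: 6.5 µM single dose; timing: compound 30 min, challenge 1 h, detection 1 h; signal: TR-FRET cAMP assay; replicates: one well per compound, no replicates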
MC4R barr conf – human MC4R beta-arrestin agonism confirmation. activation, % at 8.9 µM. U2OS MC4R beta-arrestin recruitment, luminescence; scaled DMSO 0%, Melanotan II 100%. shares compounds with MC4R barr agon. actives 31% (n = 2,400);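 active = mean activation across replicates above the hit cutoff set in the earlier primary screen, cut at about 8% in these data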
MOR DOR agonist – activates mu-delta opioid heterodimer, MC4R agonist counter-screen | shares compounds with MC4R barr agon | U2OS PathHunter beta-arrestin, beta-gal luminescence; percent of deltorphin B response, DMSO zero | actives 5.8% (n = 2,400) | activation, % at 9.2 µM;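 active = mean activation across replicates exceeds the hit threshold derived in the earlier primary screen, cut at about 18% in these data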;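 also: 100% = deltorphin B at 0.9 µM final and 0% = DMSO alone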
Numbers without * were called inactive; . = no result given.

SMILES	ARFGAP1 inh	Yeast UUG start	ASAP1 inh	MC4R barr agon	NRP1-CendR mod	MC4R antagonist	MC4R barr conf	MOR DOR agonist
CSc1ccc(C(=O)NC2CCSc3ccccc32)cc1 (stereo unspecified)	3	-14	-8	21*	-1	-4	3	6
COc1ccc(C(=O)NC2CCSc3ccccc32)cc1 (stereo unspecified)	-2	-6	5	0	10	-2	.	.
Cc1noc(C)c1S(=O)(=O)N(C)C[C@H]1OCCCC[C@H](C)Oc2ccc(NC(=O)Nc3ccccc3)cc2C(=O)N([C@H](C)CO)C[C@H]1C	.	-16	.	.	.	.	.	.
COc1ccc(-c2sc3ccccc3c2-c2ccc(O)cc2)cc1	14	-24	15	0	4	7	.	.
COc1ccc(-c2sc3ccccc3c2-c2ccc(OCCN(C)C)cc2)cc1	10	-25	16	21*	4	28	45*	15
CN(C)CCOc1ccc(-c2c(-c3ccsc3)sc3ccccc23)cc1	-3	-23	2	13*	8	12	23*	9
COc1cc(CNCc2ccccc2)cc(Cl)c1OC	-6	-14	-7	-3	-4	3	.	.
COc1cc(CNCCc2ccccc2)cc(Cl)c1OCc1ccccc1	11	-9	-12	14*	-3	4	10*	13
CC(=O)Nc1ccc2c(c1)C(=O)N(C)[C@H]1CC[C@H](CC(=O)Nc3ccc(Cl)cc3)O[C@@H]1CO2	.	13	.	.	.	.	.	.
O=C1[C@H]2[C@H](C=CC[C@H]2C(=O)N2CCN(c3ccccc3)CC2)CCN1Cc1ccc(Cl)c(Cl)c1	-10	-16	7	69*	10	15	15*	4
O=C(NCCc1ccccc1)[C@@H]1CC=C[C@@H]2CCN(Cc3ccc(Cl)c(Cl)c3)C(=O)[C@@H]21	-2	3	10	12*	8	-3	9.3*	8
COc1ccc(NC(=O)[C@@H]2CC=C[C@@H]3CCN(Cc4ccc(Cl)c(Cl)c4)C(=O)[C@@H]32)cc1	10	-19	0	13*	18	4	11*	3
CO[C@H]1CN(C)C(=O)c2cc(NS(=O)(=O)c3ccc(C)cc3)ccc2OC[C@H](C)N(Cc2nccs2)C[C@@H]1C	.	3	.	.	.	.	.	.
COc1ccc(/C=N\NS(=O)(=O)c2ccc(Br)cc2)cc1COc1ccccc1[N+](=O)[O-]	2	7	-10	2	1	9	.	.
COc1ccc(/C=N\NS(=O)(=O)c2ccc(Cl)cc2)cc1COc1ccccc1[N+](=O)[O-]	-2	1	-6	18*	24*	9	10*	6

An excerpt from above in order of count of non-hydrogen atoms, high to low.
SMILES	ARFGAP1 inh	Yeast UUG start	ASAP1 inh	MC4R barr agon	NRP1-CendR mod	MC4R antagonist	MC4R barr conf	MOR DOR agonist
COc1ccc(NC(=O)[C@@H]2CC=C[C@@H]3CCN(Cc4ccc(Cl)c(Cl)c4)C(=O)[C@@H]32)cc1	10	-19	0	13*	18	4	11*	3
COc1ccc(-c2sc3ccccc3c2-c2ccc(OCCN(C)C)cc2)cc1	10	-25	16	21*	4	28	45*	15
COc1ccc(-c2sc3ccccc3c2-c2ccc(O)cc2)cc1	14	-24	15	0	4	7	.	.

Remaining list, next part:
SMILES	ARFGAP1 inh	Yeast UUG start	ASAP1 inh	MC4R barr agon	NRP1-CendR mod	MC4R antagonist	MC4R barr conf	MOR DOR agonist
C[C@H]1CN([C@@H](C)CO)S(=O)(=O)c2ccc(C#CC3CC3)cc2O[C@@H]1CN(C)Cc1ccccc1	.	15	.	.	.	.	.	.
COc1ccc(CCNC(=O)/C(C#N)=C2\N=C(NC(=O)c3ccco3)c3ccccc32)cc1	3	-5	-4	14*	-24	4	-1	2
C[C@@H]1CN([C@@H](C)CO)C(=O)c2cccc(NC(=O)NC3CCCCC3)c2O[C@H]1CN(C)C(=O)Nc1ccc2c(c1)OCO2	.	5	.	.	.	.	.	.
COc1ccc(-c2nc3c(Br)c(N)c(Br)cc3o2)cc1	.	-4	.	11*	-12	9	8	4
C[C@@H]1CN([C@H](C)CO)C(=O)c2ccccc2-c2ccccc2CO[C@@H]1CN(C)C(=O)c1ccccc1	.	14	.	.	.	.	.	.
COc1ccc(C(=O)COC(=O)c2cc(=O)[nH]c3ccccc23)c(OC)c1	2	-4	9	12*	-7	-9	-1	2
COc1ccccc1C(=O)COC(=O)c1cc(=O)[nH]c2ccccc12	-1	.	1	2	-8	1	.	.
Cc1noc(C)c1S(=O)(=O)Nc1ccc2c(c1)C(=O)N([C@@H](C)CO)C[C@@H](C)[C@@H](CN(C)Cc1ccccc1)OCCCC[C@@H](C)O2	.	11	.	.	.	.	.	.
CO[C@H]1CN(C)C(=O)c2ccc(NC(=O)c3cc(C)on3)cc2OC[C@H](C)N(CC2CC2)C[C@H]1C	.	-16	.	.	.	.	.	.
O=C(COc1ccccc1)Nc1nc2cc3c(cc2s1)OCCO3	-12	-23	8	14*	9	5	6	1
Cc1ccc(/C=C/C(=O)Nc2nnc(SCc3ccc(C#N)cc3)s2)o1	-7	-30	-8	51*	-19	9	0	4
Cc1ccc(/C=C/C(=O)Nc2sc3c(c2C#N)CCCC3)o1	6	-17	-9	28*	-13	-4	-2	3
CCc1ccc(CCC(=O)Nc2sc3c(c2C#N)CCCC3)o1	-8	-13	-11	-3	-10	-14	.	.
Cc1cccc(C(=O)Nc2sc3c(c2C#N)CCCCC3)c1	5	.	12	17*	-2	-2	-1	5
N#Cc1c(NC(=O)c2ccccc2)sc2c1CCC2	3	-20	-13	-1	0	-14	.	.

Some of these compounds in order of the MC4R antagonist value, descending.
structure	MC4R antagonist
CN(C)CCOc1ccc(-c2c(-c3ccsc3)sc3ccccc23)cc1	12
Cc1ccc(/C=C/C(=O)Nc2nnc(SCc3ccc(C#N)cc3)s2)o1	9
O=C(NCCc1ccccc1)[C@@H]1CC=C[C@@H]2CCN(Cc3ccc(Cl)c(Cl)c3)C(=O)[C@@H]21	-3
Cc1ccc(/C=C/C(=O)Nc2sc3c(c2C#N)CCCC3)o1	-4
N#Cc1c(NC(=O)c2ccccc2)sc2c1CCC2	-14

More entries follow.
SMILES	ARFGAP1 inh	Yeast UUG start	ASAP1 inh	MC4R barr agon	NRP1-CendR mod	MC4R antagonist	MC4R barr conf	MOR DOR agonist
COc1ccccc1C(=O)O/N=C1/CCCc2c1ccc(OC)c2[N+](=O)[O-]	-10	-8	-15	20*	-10	-1	6	9
COc1ccc2c(c1[N+](=O)[O-])CCC/C2=N/OC(=O)c1ccccc1SC	5	-9	-10	1	-3	-3	.	.
O=[N+]([O-])c1ccc(S(=O)(=O)Nc2ccc(-c3ccccc3)cc2)cc1	2	-7	6	15*	-4	6	1	7
CC(=O)c1ccc(NS(=O)(=O)c2ccc([N+](=O)[O-])cc2)cc1	-13	-1	5	-1	8	3	.	.
CC(C)CN(CC(C)C)CC(O)COc1ccc([N+](=O)[O-])cc1 (stereo unspecified)	-1	-12	-4	10*	7	10	-1	7
O=[N+]([O-])c1ccc(OCC(O)CN(C2CCCCC2)C2CCCCC2)cc1 (stereo unspecified)	13	-7	3	-1	2	-6	.	.
O=C(CCN1CCCCC1)NCC[C@H]1CC[C@@H](NS(=O)(=O)c2cccc(F)c2)[C@@H](CO)O1	.	-5	.	.	.	.	.	.
COC(=O)c1sccc1N/N=C/c1cccc(OC)c1O	7	-23	-2	14*	6	2	0	6
Cc1noc(C)c1S(=O)(=O)Nc1ccc2c(c1)C(=O)N([C@H](C)CO)C[C@@H](C)[C@H](CN(C)C(=O)C1CCCCC1)OCCCC[C@@H](C)O2	.	7	.	.	.	.	.	.
